One assay addresses human μ opiate receptor (Homo sapiens, UniProt P35372). Briefly: μ opiate receptor binding assay with [3H]-naloxone (WGA-SPA beads). The note with it: for Ki: read-out: Ki (μ) mean [μm], mean; for % inhibition (μ) [1 μM]: test concentration 1 μM.
The next assay deals with ORL1 receptor (Homo sapiens, UniProt P41146). Briefly: ORL1 receptor binding assay with 3H-nociceptin/orphanin FQ (WGA-SPA beads). To be noted: for Ki: read-out: Ki (ORL1) mean, mean; for % inhibition (ORL1) [1 μM]: test concentration 1 μM.

By UniProt entry, the sequences of proteins in these tests, tags left out.
UniProt P35372, whole entry: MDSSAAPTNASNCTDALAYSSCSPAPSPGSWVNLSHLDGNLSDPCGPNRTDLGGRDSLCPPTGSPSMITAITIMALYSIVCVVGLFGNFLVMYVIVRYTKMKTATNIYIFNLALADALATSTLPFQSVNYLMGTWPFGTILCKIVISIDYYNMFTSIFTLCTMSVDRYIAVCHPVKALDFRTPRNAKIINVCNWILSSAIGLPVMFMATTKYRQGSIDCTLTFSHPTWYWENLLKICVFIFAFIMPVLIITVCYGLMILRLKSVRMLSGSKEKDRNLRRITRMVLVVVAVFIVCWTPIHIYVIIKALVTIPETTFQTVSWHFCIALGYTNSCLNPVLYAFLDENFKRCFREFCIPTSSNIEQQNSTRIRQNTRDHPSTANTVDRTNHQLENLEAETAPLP
UniProt P41146, whole entry: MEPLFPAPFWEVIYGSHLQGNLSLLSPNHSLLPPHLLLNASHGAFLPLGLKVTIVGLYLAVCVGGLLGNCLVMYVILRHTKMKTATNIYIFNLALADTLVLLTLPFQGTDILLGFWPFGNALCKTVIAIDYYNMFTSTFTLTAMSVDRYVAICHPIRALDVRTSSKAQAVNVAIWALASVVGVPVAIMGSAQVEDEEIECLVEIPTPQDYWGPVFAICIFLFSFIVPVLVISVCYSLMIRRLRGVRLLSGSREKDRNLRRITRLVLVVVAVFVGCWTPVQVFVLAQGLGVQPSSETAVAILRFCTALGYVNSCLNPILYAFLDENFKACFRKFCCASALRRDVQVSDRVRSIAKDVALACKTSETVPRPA

One may read the Ki as a measure of affinity in units of concentration, obtained from inhibition or displacement. For `CCCC(=O)N1CCC2(CCC(Cc3cccs3)(N(C)C)CC2)C1` (stereo not drawn), on human μ opiate receptor, the inhibitory constant (Ki) was determined as 64.5 nM and the “% inhibition (μ) [1 μM]” value was 79.5%. On ORL1 receptor, the Ki is 230 nM and the “% inhibition (ORL1) [1 μM]” value came to 41.5%.

With `CCCCN1CCC2(CCC(c3ccccc3)(N3CCC3)CC2)C1` (stereo not drawn), at human μ opiate receptor, the Ki was 2540 nM and the “% inhibition (μ) [1 μM]” value is 44%. On ORL1 receptor, the Ki was determined as 1340 nM and the “% inhibition (ORL1) [1 μM]” value was determined as 38.5%.

As for `CN(C)C1(C2CCCC2)CCC2(CC1)CC(=O)N(CC1CCOC1)C2` (stereo not drawn), on human μ opiate receptor, the Ki was 27.5 nM and the “% inhibition (μ) [1 μM]” value is reported as 95%. Besides, at ORL1 receptor, the inhibition constant Ki was 77.3 nM and the “% inhibition (ORL1) [1 μM]” value is on record as 52.5%.

As for `CN(C)C1(C2CCCC2)CCC2(CC1)CC(=O)N(C[C@@H]1CCOC1)C2` (stereo partly drawn), at human μ opiate receptor, the inhibition constant (Ki) turned out to be 29 nM and the “% inhibition (μ) [1 μM]” value was 92%. Also, at ORL1 receptor, the Ki was 265 nM and the “% inhibition (ORL1) [1 μM]” value was found to be 43.5%.

On to `CN(C)C1(c2ccccc2)CCC2(CC1)CC(=O)N(CC1CCCC1)C2` (stereo not drawn), for which, on human μ opiate receptor, the inhibition constant Ki stood at 170 nM and the “% inhibition (μ) [1 μM]” value amounted to 83%. For the same compound, at ORL1 receptor, the inhibition constant Ki amounted to 101 nM and the “% inhibition (ORL1) [1 μM]” value came out at 76%.

For `CN(C)C1(c2ccccc2)CCC2(CCN(CC3CCOCC3)C2)CC1` (stereo not drawn), at human μ opiate receptor, the inhibition constant Ki is 7 nM and the “% inhibition (μ) [1 μM]” value is recorded as 97.5%. Also, on ORL1 receptor, the Ki was 5.1 nM and the “% inhibition (ORL1) [1 μM]” value was found to be 93%.

Turning to `CN(C)C1(c2ccccc2)CCC2(CCN(CCC3CCCO3)C2)CC1` (stereo not drawn), at human μ opiate receptor, the Ki was 0.93 nM and the “% inhibition (μ) [1 μM]” value was 99.5%. Moreover, at ORL1 receptor, the inhibition constant (Ki) was 2.45 nM and the “% inhibition (ORL1) [1 μM]” value came out at 93%.

Consider `CN(C)C1(c2cccs2)CCC2(CC1)CC(=O)N(CC1CC1)C2` (stereo not drawn), for which, on human μ opiate receptor, the inhibitory constant (Ki) was 1510 nM and the “% inhibition (μ) [1 μM]” value is 35.5%. Further, at ORL1 receptor, the Ki amounted to 195 nM and the “% inhibition (ORL1) [1 μM]” value amounted to 47.5%.

With `CN(C)C1(c2cccs2)CCC2(CC1)CC(=O)N(CC1CCOC1)C2` (stereo not drawn), on human μ opiate receptor, the inhibition constant Ki was 7.6 nM and the “% inhibition (μ) [1 μM]” value turned out to be 97%. Further, at ORL1 receptor, the Ki turned out to be 8.8 nM and the “% inhibition (ORL1) [1 μM]” value came to 93.5%.

On to `CN(C)C1(c2cccs2)CCC2(CC1)CC(=O)N(C[C@@H]1CCOC1)C2` (stereo partly drawn), for which, at human μ opiate receptor, the inhibition constant (Ki) stood at 10.6 nM and the “% inhibition (μ) [1 μM]” value is 98.5%. Moreover, on ORL1 receptor, the Ki was determined as 12.2 nM and the “% inhibition (ORL1) [1 μM]” value is on record as 93%.

In the case of `CN(C)C1(c2cccs2)CCC2(CCN(C(=O)C3(O)CC3)C2)CC1` (stereo not drawn), on human μ opiate receptor, the Ki was found to be 31.5 nM and the “% inhibition (μ) [1 μM]” value is given as 94%. For the same compound, on ORL1 receptor, the Ki turned out to be 112 nM and the “% inhibition (ORL1) [1 μM]” value is 60%.

With `COC(C)(C)CC(=O)N1CCC2(CCC(c3ccc(F)s3)(N(C)C)CC2)C1` (stereo not drawn), at human μ opiate receptor, the Ki was 2.65 nM and the “% inhibition (μ) [1 μM]” value was 99%. At ORL1 receptor, the Ki came to 49 nM and the “% inhibition (ORL1) [1 μM]” value came out at 72%.

`COC(C)(C)CCN1CCC2(CCC(C3CCCC3)(N(C)C)CC2)C1` (stereo not drawn): on human μ opiate receptor, the Ki was found to be 8.4 nM and the “% inhibition (μ) [1 μM]” value is on record as 98%. At ORL1 receptor, the Ki is 163 nM and the “% inhibition (ORL1) [1 μM]” value is 69%.

Regarding `COC(C)CN1CC2(CCC(c3ccccc3)(N(C)C)CC2)CC1=O` (stereo not drawn), at human μ opiate receptor, the inhibition constant Ki is 9.05 nM and the “% inhibition (μ) [1 μM]” value turned out to be 98%. On ORL1 receptor, the Ki turned out to be 2.75 nM and the “% inhibition (ORL1) [1 μM]” value came out at 93%.

As to `COC1(CN2CCC3(CCC(c4ccccc4)(N(C)C)CC3)C2)CC1` (stereo not drawn), at human μ opiate receptor, the Ki came out at 11 nM and the “% inhibition (μ) [1 μM]” value is listed as 97.5%. Also, at ORL1 receptor, the Ki was 11.5 nM and the “% inhibition (ORL1) [1 μM]” value is reported as 88%.

Regarding `CN(C)C1(c2cccs2)CCC2(CC1)CC(=O)N(CC(C)(C)C#N)C2` (single isomer, unassigned), at human μ opiate receptor, the Ki came out at 270 nM and the “% inhibition (μ) [1 μM]” value was 69%. At ORL1 receptor, the inhibition constant Ki came to 170 nM and the “% inhibition (ORL1) [1 μM]” value amounted to 45.5%.

For the compound `CN(C)C1(c2cccs2)CCC2(CC1)CC(=O)N(CC(C)(C)O)C2` (single isomer, unassigned), at human μ opiate receptor, the inhibition constant Ki worked out at 20 nM and the “% inhibition (μ) [1 μM]” value was 97%. Besides, at ORL1 receptor, the Ki stood at 36 nM and the “% inhibition (ORL1) [1 μM]” value is 73.5%.

With `CN(C)C1(c2cccs2)CCC2(CC1)CC(=O)N(CC1CCO1)C2` (single isomer, unassigned), at human μ opiate receptor, the Ki came out at 30 nM and the “% inhibition (μ) [1 μM]” value was determined as 94.5%. On ORL1 receptor, the Ki worked out at 16 nM and the “% inhibition (ORL1) [1 μM]” value is on record as 80.5%.

(Values after patent publication US10202345B2, “Substituted azaspiro(4.5)decane derivatives” (priority 2014, dated 2019).)
